The target of this assay is T1, mut-GVHH PmIleRS2 (Priestia megaterium, UniProt A0A0B6AVD3, G56H/H54G).
T1 sequence (A0A0B6AVD3 1-1032 H54G/G56H): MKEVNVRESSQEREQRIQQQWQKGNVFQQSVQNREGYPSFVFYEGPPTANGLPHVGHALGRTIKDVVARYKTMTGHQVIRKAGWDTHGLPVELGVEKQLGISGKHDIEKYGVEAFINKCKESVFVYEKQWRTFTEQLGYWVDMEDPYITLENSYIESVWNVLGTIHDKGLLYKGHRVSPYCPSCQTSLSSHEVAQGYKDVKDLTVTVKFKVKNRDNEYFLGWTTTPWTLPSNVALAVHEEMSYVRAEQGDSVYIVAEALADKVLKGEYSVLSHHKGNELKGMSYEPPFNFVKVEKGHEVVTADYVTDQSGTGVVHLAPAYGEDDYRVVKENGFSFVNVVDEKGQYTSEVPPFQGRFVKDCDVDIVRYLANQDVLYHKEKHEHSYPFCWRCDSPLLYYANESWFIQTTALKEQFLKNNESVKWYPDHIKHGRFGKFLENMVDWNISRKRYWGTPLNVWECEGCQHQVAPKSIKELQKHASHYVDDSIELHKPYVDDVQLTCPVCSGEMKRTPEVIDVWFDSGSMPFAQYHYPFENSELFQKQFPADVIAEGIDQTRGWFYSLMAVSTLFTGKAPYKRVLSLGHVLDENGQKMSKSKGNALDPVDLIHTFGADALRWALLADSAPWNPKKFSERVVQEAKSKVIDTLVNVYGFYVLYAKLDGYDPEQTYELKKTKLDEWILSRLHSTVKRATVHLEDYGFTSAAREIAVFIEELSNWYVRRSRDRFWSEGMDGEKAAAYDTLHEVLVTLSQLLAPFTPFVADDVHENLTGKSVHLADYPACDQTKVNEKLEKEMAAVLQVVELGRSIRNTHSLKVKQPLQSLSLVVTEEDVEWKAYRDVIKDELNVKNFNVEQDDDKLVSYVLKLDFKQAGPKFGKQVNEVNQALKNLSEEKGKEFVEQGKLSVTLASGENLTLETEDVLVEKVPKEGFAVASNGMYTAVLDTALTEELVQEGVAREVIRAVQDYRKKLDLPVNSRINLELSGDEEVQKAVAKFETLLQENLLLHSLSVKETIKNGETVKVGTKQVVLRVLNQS
Nature of the assay: ATP-PPi exchange assay, mupirocin inhibition of amino acid activation. It is filed as biochemical, Priestia (Bacillus) megaterium. As to the method: L-Ile and ATP concentrations ranged from 1/10 KM to 10 KM values. When measuring the KI towards one of the substrates, the other was held in saturation (concentrations at least 10 KM). The aliquots of the reaction mixture (1–2.5 μl) were quenched in 2 volumes of 500 mM NaOAc pH = 4.5, 0.1% SDS, and formed ^32P-ATP was separated from the remaining ^32P-PPi by thin-layer chromatography on Polygram CEL 300 PEI UV254 TLC plates (Macherey-Nagel, cat: 801063) using 750 mM KH2PO4 pH=3.5, 4 M urea buffer. Visualization and quantification of the signals was performed using a Typhoon Phosphoimager 5 (General Electric) and accompanying ImageQuant™ TL software (SV: 10.2). The kinetic constants were determined using a global fit option of the competitive inhibition model of GraphPad Prism 6 software (SV: 6.01). All experiments were performed in triplicates. The kcat was determined by dividing the maximal velocity, VM, with the used enzyme concentration. […]
variable substrate (ATP or Ile) was varied in the range of 0.1 KM to 10 KM. The other substrate (Ile or ATP) was kept in excess at 5 to 10 KM. Data were globally fitted to the competitive inhibition model using GraphPad prism 6.01 for Windows software. The values represent the average value ± SD of three independent experiments. Source data are provided as a Source Data file.

Where “and” joins values, the source holds several entries; their conditions need not be identical. Equal entries are not always repeated.

Consider `C/C(=C\C(=O)OCCCCCCCCC(=O)O)C[C@@H]1OC[C@H](C[C@@H]2O[C@H]2[C@@H](C)[C@H](C)O)[C@@H](O)[C@H]1O` [mupirocin], for which the “FOLD Change of KI, single replicates” value (MUT/WT PmIleRS2, Repl1-Repl3, towards Ile) is 451.9 and 482.8 and 354.7. This compound also returned a vo (c (mupirocin) = 0.5 mM, c (Ile) 100.0 μM, Replica 3) of 0.01792 mM/min.

For the origin of these results see PMC10485003, “Antibiotic hyper-resistance in a class I aminoacyl-tRNA synthetase with altered active site signature motif” (Nature Communications, 2023).
